Measured affinities in a library of Ab-91 heavy chain variants

The target is the same throughout: PDVDLGDISGINAS, from the HR2 region of SARS-CoV-2 spike.

Parent: Ab-91, a human scFv built as VL, a 15-residue (Gly4Ser)3 linker, VH. Only the CDRs of the heavy chain vary.
VL: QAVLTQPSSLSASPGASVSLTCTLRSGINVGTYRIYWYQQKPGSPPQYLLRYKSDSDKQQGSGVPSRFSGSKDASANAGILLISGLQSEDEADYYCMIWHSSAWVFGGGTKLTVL
VH: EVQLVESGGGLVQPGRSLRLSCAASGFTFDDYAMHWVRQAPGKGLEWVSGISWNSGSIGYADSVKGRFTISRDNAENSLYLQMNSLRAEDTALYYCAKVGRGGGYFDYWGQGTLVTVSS

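The library (AAYL51) carries one to three amino acid substitutions per variant, with no insertions or deletions. Affinity was read by AlphaSeq, a pooled yeast mating assay with surface-displayed partners. The frequency of each diploid, read from paired DNA barcodes, reflects how well the two displayed proteins bind. A regression on co-assayed BCL2-family reference pairs converts the normalised counts of each replicate to an apparent Kd. Mating was done three times.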

Each variant is given by its three heavy chain CDRs, as the data file delimits them; those of the parent are GFTFDDYAMH, GISWNSGSIGYADSVK, VGRGGGYFDY. Affinities are written as log10 Kd with Kd in nM; a lower number is a better binder. A mean of the replicates is given; it leaves out those without a signal. "n.d." means that the variant was in the library but no mating with the target was seen in that replicate; the authors take this as a sign of poor binding, and no number exists. As a blank, each scFv also met three strains without target: over library AAYL51, 21% of these pairings were detected, typically at 4.54 and seldom below 3.26. The control count says in how many pairings with the empty strains this scFv gave a signal, with their mean in brackets.

| # | CDR-H1 | CDR-H2 | CDR-H3 | log10 Kd, replicates | mean, log10 nM | empty controls |
|---|---|---|---|---|---|---|
| 1 | GFTFDDYDMH | GISWNSGSIGYADSVA | VGRGGHYFDY | 4.07 / n.d. / n.d. | 4.07 | 0/9 |
| 2 | GFTFVDYAMH | GISWNSGSIGYADSVM | VGRGGGYFDA | 0.88 / 0.87 / 0.65 | 0.80 | 5/9 (4.60) |
| 3 | GFTFDDYAMH | GISWNSGSIGYADSVK | HGRGWGYFDC | 5.59 / 5.79 / 5.18 | 5.52 | 8/9 (5.15) |
| 4 | GFAFDDYAMH | GISWNSGSIGYDDSVC | VGRGGGYFDY | n.d. / n.d. / n.d. | n.d. | 1/9 (3.40) |
| 5 | GFTTDDYAMH | GISWNSGSWGYADSWK | VGRGGGYFDY | n.d. / n.d. / n.d. | n.d. | 0/9 |
| 6 | GFTFDDYAWH | GISWNSGSIGYADSAK | VGRGGGYFDY | n.d. / 4.62 / n.d. | 4.62 | 0/9 |
| 7 | GFTFTDYAMH | GISWNSGSIMYADSVK | VGRGGLYFDY | n.d. / n.d. / n.d. | n.d. | 0/9 |
| 8 | GFTFDPYYMH | GISWNSGSIGYADSVK | VGRGFGYFDY | 4.36 / n.d. / 4.90 | 4.63 | 2/9 (4.47) |
| 9 | GMTFDDYAMH | GISWNSGSIVYADSVK | VGRGGGYNDY | n.d. / 5.35 / n.d. | 5.35 | 3/9 (3.11) |
| 10 | GFTFDDCAMH | GISTNSGSIGYADSVK | VVRGGGYFDY | 4.66 / 5.51 / n.d. | 5.08 | 3/9 (5.11) |
| 11 | GFTFDDYAMV | GQCWNSGSIGYADSVK | VGRGGGYFDY | n.d. / n.d. / n.d. | n.d. | 0/9 |
| 12 | GFTFDDYAMH | GISWNSGSIGYADSVK | VGRGGGYFDW | 1.36 / 1.20 / 0.75 | 1.10 | 1/9 (5.34) |
| 13 | GFTFDDYAMH | GISQNSGSIGYADEVK | VGRGGGYFHY | 3.62 / 2.41 / 1.63 | 2.55 | 3/9 (4.40) |
| 14 | GFTFDDYAFH | GISYNAGSIGYADSVK | VGRGGGYFDY | 1.91 / 1.70 / 1.72 | 1.78 | 2/9 (3.03) |
| 15 | GFTFDDYAMH | GISWNSGSIGYADSQK | YGRGDGYFDY | n.d. / n.d. / n.d. | n.d. | 4/9 (3.90) |
| 16 | GFTFDDYAMH | GISWNSESHGYADSVK | VGRGGGYFDY | 2.02 / 2.24 / 2.20 | 2.15 | 2/9 (4.26) |
| 17 | GFTFDDYAMH | GISWNSGSIIYADSVK | VGRGGGYHDW | 6.22 / n.d. / n.d. | 6.22 | 0/9 |
| 18 | GFTFVDYAMH | GISWNSGSIGYADSVK | VGRGGGAFDE | 4.13 / 4.31 / 4.25 | 4.23 | 8/9 (4.87) |
| 19 | GFTFDHYAMH | GISWNSGSKGYADSVK | VGRGGGYFYY | 0.58 / 0.49 / -0.22 | 0.28 | 7/9 (4.88) |
| 20 | GFRFDDYAMH | GESWNSGSIGYADSVK | VGRGGGYFDY | n.d. / n.d. / n.d. | n.d. | 0/9 |
| 21 | GFTFFDYAMH | GISWNSGSIGYADSVK | IGRGEGYFDY | 2.80 / 2.98 / 2.80 | 2.86 | 2/9 (4.21) |
| 22 | FFTFDDTAMH | GISWNSMSIGYADSVK | VGRGGGYFDY | 3.90 / 3.58 / n.d. | 3.74 | 2/9 (4.00) |
| 23 | GFTNDDYAMH | GISWLSGSIGYADSRK | VGRGGGYFDY | n.d. / n.d. / n.d. | n.d. | 0/9 |
| 24 | GFTFDKNAMH | GISWNMGSIGYADSVK | VGRGGGYFDY | 3.64 / 3.89 / 4.08 | 3.87 | 9/9 (5.73) |
| 25 | LFHSDDYAMH | GISWNSGSIGYADSVK | VGRGGGYFDY | n.d. / n.d. / n.d. | n.d. | 0/9 |
| 26 | GFTFNDYAMH | GISWNPISIGYADSVK | VGRGGGYFDY | 3.22 / 4.89 / 4.41 | 4.17 | 2/9 (4.27) |
| 27 | GWTFDDYGMH | HISWNSGSIGYADSVK | VGRGGGYFDY | n.d. / n.d. / 4.27 | 4.27 | 5/9 (4.64) |
| 28 | GCTFDDYAMH | GISWNSGSIGYANSVK | FGRGGGYFDY | n.d. / n.d. / n.d. | n.d. | 0/9 |
| 29 | GFTFDDYATH | GISWNSGSIGYADSVK | VGRGGSYFQY | 4.30 / n.d. / n.d. | 4.30 | 3/9 (5.17) |
| 30 | GMTYDDYAMH | GISWNSGEIGYADSVK | VGRGGGYFDY | n.d. / n.d. / n.d. | n.d. | 1/9 (3.61) |
| 31 | GFTFDDYAMH | GPSWNSGSIGYADSVK | VGMGGGYFDY | n.d. / 4.75 / n.d. | 4.75 | 0/9 |
| 32 | GRTFDDYAMH | GISWNSPSIAYADSVK | VGRGGGYFDY | n.d. / n.d. / n.d. | n.d. | 1/9 (4.97) |
| 33 | GFTFADYAMH | GISWNSGSISYADSLK | VGRGGGYFDY | n.d. / n.d. / n.d. | n.d. | 3/9 (3.60) |
| 34 | GFTFDDYAMH | GISWNAGSIGYASSVK | VGRGGGVFDY | 4.56 / n.d. / n.d. | 4.56 | 4/9 (4.03) |
| 35 | GFTFDDYAMH | GISWNSGSIGGAESVK | LGRGGGYFDY | n.d. / n.d. / n.d. | n.d. | 0/9 |
| 36 | GFTFDDYAMH | GISWNCGSIGYADSVK | VGHGGGYIDY | 5.48 / n.d. / n.d. | 5.48 | 3/9 (4.72) |
| 37 | GFTFDDYAMH | QWSWNSGSIGEADSVK | VGRGGGYFDY | n.d. / n.d. / n.d. | n.d. | 1/9 (5.71) |
| 38 | GFTFDDYAMH | GISWRSGSIGYADSVK | QGRGGGYFDY | 4.70 / 4.62 / n.d. | 4.66 | 4/9 (5.13) |
| 39 | GFTFDDYAMH | GISWNSGFIGYADFVK | VGRGGGYNDY | 2.63 / 2.63 / 2.26 | 2.51 | 2/9 (4.38) |
| 40 | GFTFDDYHMH | GISWVLGSIGYADSVK | VGRGGGYFDY | n.d. / 5.28 / n.d. | 5.28 | 3/9 (4.23) |
| 41 | GFTFSDYAMH | GISWNCGSIGYADSQK | VGRGGGYFDY | n.d. / n.d. / n.d. | n.d. | 1/9 (3.84) |
| 42 | GFTFDDYAMH | TISWNSGSIGYADSVK | VGRMGMYFDY | n.d. / n.d. / n.d. | n.d. | 0/9 |
| 43 | GFTFIDYAMH | GISGNSGSIGYADSVK | QGRGGGYFDY | n.d. / n.d. / n.d. | n.d. | 0/9 |
| 44 | GFTFDDYAMH | GISWNSGSIGYAESVK | VGRKGGYFDY | 1.12 / 1.19 / 0.61 | 0.97 | 4/9 (5.38) |
| 45 | GFTFDDYAMH | GIRWNSGSIGYADSVK | VGRGEGYFDH | n.d. / 3.84 / n.d. | 3.84 | 1/9 (3.73) |
| 46 | GFTFQDYAMH | GISWNSGLIGYADSVK | VNRGGGYFDY | 1.47 / 1.55 / 1.13 | 1.38 | 3/9 (4.75) |
| 47 | GFTFDDYAAH | GIKWNSGSIGYADSVK | VGRGGGYFGY | n.d. / n.d. / n.d. | n.d. | 2/9 (4.62) |
| 48 | GITFDDYAYH | GISWNSGSIGWADSVK | VGRGGGYFDY | 4.62 / n.d. / 5.37 | 5.00 | 4/9 (4.97) |
| 49 | WFTFDDYAMH | GISWNSGSITYADSVK | VGRGGGYFDY | 5.48 / n.d. / n.d. | 5.48 | 2/9 (4.31) |
| 50 | GFTFDDYAMH | GGEWNSGSIGVADSVK | VGRGGGYFDY | n.d. / n.d. / n.d. | n.d. | 0/9 |
| 51 | GFTFDDWRNH | GISWNSGSIGYADSVK | VGRGGGYFDY | 4.81 / n.d. / n.d. | 4.81 | 1/9 (4.68) |

The first 5 variants above that were never detected:

| CDR-H1 | CDR-H2 | CDR-H3 | log10 Kd, replicates | mean, log10 nM | empty controls |
|---|---|---|---|---|---|
| GFAFDDYAMH | GISWNSGSIGYDDSVC | VGRGGGYFDY | n.d. / n.d. / n.d. | n.d. | 1/9 (3.40) |
| GFTTDDYAMH | GISWNSGSWGYADSWK | VGRGGGYFDY | n.d. / n.d. / n.d. | n.d. | 0/9 |
| GFTFTDYAMH | GISWNSGSIMYADSVK | VGRGGLYFDY | n.d. / n.d. / n.d. | n.d. | 0/9 |
| GFTFDDYAMV | GQCWNSGSIGYADSVK | VGRGGGYFDY | n.d. / n.d. / n.d. | n.d. | 0/9 |
| GFTFDDYAMH | GISWNSGSIGYADSQK | YGRGDGYFDY | n.d. / n.d. / n.d. | n.d. | 4/9 (3.90) |

The measurements come from Engelhart et al. 2022 (doi:10.1038/s41597-022-01779-4) through the FLAb antibody collection.